Apparent affinities of Ab-91 variants for a coronavirus HR2 peptide

From the AlphaSeq antibody data of Engelhart et al. 2022 (doi:10.1038/s41597-022-01779-4), copy in the FLAb collection.

All variants were tested on one target, the spike HR2 peptide PDVDLGDISGINAS (SARS-CoV-2).

Parent: Ab-91, a human scFv built as VL, three GGGGS repeats, VH. Only the CDRs of the heavy chain vary.
VL: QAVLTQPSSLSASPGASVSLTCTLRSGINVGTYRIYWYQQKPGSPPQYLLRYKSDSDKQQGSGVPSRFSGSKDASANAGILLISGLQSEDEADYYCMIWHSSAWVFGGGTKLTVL
VH: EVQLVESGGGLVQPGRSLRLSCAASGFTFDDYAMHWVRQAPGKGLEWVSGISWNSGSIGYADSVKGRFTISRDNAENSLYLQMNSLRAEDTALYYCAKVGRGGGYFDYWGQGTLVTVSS

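The parent was found by panning a naive human phage display library on the peptide. Variants in AAYL51 differ from the parent at up to three CDR positions; double and triple changes were sampled at random. Affinity was read by AlphaSeq, a pooled yeast mating assay with surface-displayed partners. Binding brings cells together so that they mate, and sequencing counts the barcode pairs among the diploids. A regression on co-assayed BCL2-family reference pairs converts the normalised counts of each replicate to an apparent Kd. Each pool was mated in three replicate cultures.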

Changes read parent residue, position, new residue, counted from the first residue of the VH shown.
Every variant below is changed at V99 of the VH (sequential numbering).
The Kd shown is the geometric mean over detected replicates; a lower Kd is a better binder.
A pair that was not seen in any replicate is written "no signal"; this usually means weak binding, but a binder can also be missed.
For reference, the parent read 72 nM as the reference entry and 7.5 nM as a member of this library.
Nonspecific signal, from three strains lacking the peptide, appeared in 21% of pairings of library AAYL51, centred on 34 µM (5% of these signals below 1.8 µM); values are not corrected for it. The control count says in how many pairings with the empty strains this scFv gave a signal.

The variant V99G showed 24 nM (3 of 3 replicates; controls 0 of 9). The variant V99K+G103N+D107Y showed no signal (0 of 3 replicates; controls 2 of 9). The variant F29I+H35N+V99E showed 86 µM (1 of 3 replicates; controls 0 of 9). The variant Y60S+A61D+V99R gave 16 µM (1 of 3 replicates; controls 0 of 9). With H35I+Y60V+V99N the result was 44 µM (3 of 3 replicates; controls 7 of 9). With G56A+V99H the result was no signal (0 of 3 replicates; controls 0 of 9). For N54S+S55Y+V99L, the assay gave no signal (0 of 3 replicates; controls 1 of 9). For D30L+Y32I+V99H, the assay gave no signal (0 of 3 replicates; controls 0 of 9). The variant F27W+V99Y+Y108A showed 88 µM (3 of 3 replicates; controls 9 of 9).

With A33Q+V99S+G102W the result was no signal (0 of 3 replicates; controls 0 of 9). For H35A+V99M+G103P, the assay gave no signal (0 of 3 replicates; controls 2 of 9). For H35N+I51E+V99G, the assay gave no signal (0 of 3 replicates; controls 0 of 9). With F27P+Y60T+V99W the result was 56 µM (3 of 3 replicates; controls 1 of 9). With F29L+H35K+V99E the result was no signal (0 of 3 replicates; controls 0 of 9). For Y60T+V99N+G104C, the assay gave 56 nM (3 of 3 replicates; controls 2 of 9). The variant D30G+Y60H+V99L showed no signal (0 of 3 replicates; controls 0 of 9). With G50Y+V99L the result was no signal (0 of 3 replicates; controls 1 of 9). For G26R+G56Q+V99N, the assay gave 10 µM (1 of 3 replicates; controls 1 of 9).

The variant I51V+W53T+V99T gave 58 µM (1 of 3 replicates; controls 4 of 9). The variant A33E+S55I+V99F gave 11 µM (2 of 3 replicates; controls 6 of 9). The variant Y32N+V99D+Y105Q gave no signal (0 of 3 replicates; controls 0 of 9). For S55T+I58C+V99H, the assay gave 14 µM (1 of 3 replicates; controls 1 of 9). For S63P+V99H+F106N, the assay gave no signal (0 of 3 replicates; controls 0 of 9). For G26P+W53Y+V99F, the assay gave 56 µM (1 of 3 replicates; controls 2 of 9). The variant G50M+N54Y+V99E gave no signal (0 of 3 replicates; controls 0 of 9). For D62K+V99L+G102Q, the assay gave no signal (0 of 3 replicates; controls 0 of 9). With H35F+V99K+Y105R the result was no signal (0 of 3 replicates; controls 1 of 9).

With M34D+V99G+F106M the result was 1.7 µM (1 of 3 replicates; controls 1 of 9). For D30E+V99F+D107F, the assay gave no signal (0 of 3 replicates; controls 0 of 9). The variant T28S+V99M+G100D showed 52 µM (2 of 3 replicates; controls 6 of 9). For V64I+V99C+G104D, the assay gave no signal (0 of 3 replicates; controls 0 of 9). The variant S57Q+V99H+G102A gave no signal (0 of 3 replicates; controls 0 of 9). The variant Y60W+V99N+G102Y gave 380 µM (1 of 3 replicates; controls 1 of 9). The variant V99Y gave 8.1 µM (1 of 3 replicates; controls 1 of 9). The variant V99F showed 680 nM (1 of 3 replicates; controls 0 of 9). The variant V99W+F106E showed 16 nM (3 of 3 replicates; controls 4 of 9).

With G26R+D31H+V99C the result was 46 µM (1 of 3 replicates; controls 1 of 9). For V99F+G103I+Y105I, the assay gave no signal (0 of 3 replicates; controls 2 of 9). For I58Q+V99E+G100C, the assay gave 10 µM (2 of 3 replicates; controls 5 of 9). For G26S+V99A, the assay gave 1.6 µM (3 of 3 replicates; controls 2 of 9). With T28C+V99W+F106L the result was 150 nM (3 of 3 replicates; controls 1 of 9).

For reference, 5 entries of the list once more:

{"changes": "V99G", "Kd (apparent)": "24 nM", "seen in": "3/3", "empty controls": "0/9"}
{"changes": "H35A+V99M+G103P", "Kd (apparent)": "no signal", "seen in": "0/3", "empty controls": "2/9"}
{"changes": "Y32N+V99D+Y105Q", "Kd (apparent)": "no signal", "seen in": "0/3", "empty controls": "0/9"}
{"changes": "S63P+V99H+F106N", "Kd (apparent)": "no signal", "seen in": "0/3", "empty controls": "0/9"}
{"changes": "D62K+V99L+G102Q", "Kd (apparent)": "no signal", "seen in": "0/3", "empty controls": "0/9"}